The test system of the assay is Mus musculus. Nature of the assay: Antifibrotic activity in bleomycin-induced C57BL/6N mouse model of pulmonary fibrosis assessed as reduction in lung-fibrosis at 100 mg/kg, po qd administered from 7th day post-bleomycin challenge and measured post last dose. It counts as functional, organism-based.

Activity calls are given as the source filed them. No cut-off for these calls is given here.

As to `COC(=O)c1ccc2c(c1)NC(=O)/C2=C(\Nc1ccc(N(C)C(=O)CN2CCN(C)CC2)cc1)c1ccccc1`, the outcome was Active.

The values above are taken from ChEMBL document CHEMBL4699582, “Discovery of OATD-01, a First-in-Class Chitinase Inhibitor as Potential New Therapeutics for Idiopathic Pulmonary Fibrosis” (J Med Chem, 2020).
